Assay results taken from publication PMC6831628, “Steady-state activation of the high-affinity isoform of the α4β2δ GABAA receptor” (Scientific Reports, 2019).

Amino acid sequences for entries named in this document (tags omitted). A change or cut given only in a name is not applied to a line headed by its entry. Residues count along the entry.
UniProt P47870, 25-512 limits assumed: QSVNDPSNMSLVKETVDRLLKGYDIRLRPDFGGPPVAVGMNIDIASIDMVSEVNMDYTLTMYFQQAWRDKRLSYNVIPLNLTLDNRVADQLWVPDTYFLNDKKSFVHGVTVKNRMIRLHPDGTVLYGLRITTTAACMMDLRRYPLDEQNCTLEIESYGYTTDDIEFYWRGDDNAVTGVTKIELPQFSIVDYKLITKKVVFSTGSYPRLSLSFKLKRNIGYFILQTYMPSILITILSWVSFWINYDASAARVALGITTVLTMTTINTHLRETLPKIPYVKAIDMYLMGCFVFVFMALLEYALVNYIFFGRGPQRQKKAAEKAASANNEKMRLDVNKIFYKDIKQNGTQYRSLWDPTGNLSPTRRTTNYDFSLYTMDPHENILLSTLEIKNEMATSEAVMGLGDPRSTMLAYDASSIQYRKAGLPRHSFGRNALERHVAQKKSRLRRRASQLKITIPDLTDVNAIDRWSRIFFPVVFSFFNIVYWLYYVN
UniProt P48169, 36-554: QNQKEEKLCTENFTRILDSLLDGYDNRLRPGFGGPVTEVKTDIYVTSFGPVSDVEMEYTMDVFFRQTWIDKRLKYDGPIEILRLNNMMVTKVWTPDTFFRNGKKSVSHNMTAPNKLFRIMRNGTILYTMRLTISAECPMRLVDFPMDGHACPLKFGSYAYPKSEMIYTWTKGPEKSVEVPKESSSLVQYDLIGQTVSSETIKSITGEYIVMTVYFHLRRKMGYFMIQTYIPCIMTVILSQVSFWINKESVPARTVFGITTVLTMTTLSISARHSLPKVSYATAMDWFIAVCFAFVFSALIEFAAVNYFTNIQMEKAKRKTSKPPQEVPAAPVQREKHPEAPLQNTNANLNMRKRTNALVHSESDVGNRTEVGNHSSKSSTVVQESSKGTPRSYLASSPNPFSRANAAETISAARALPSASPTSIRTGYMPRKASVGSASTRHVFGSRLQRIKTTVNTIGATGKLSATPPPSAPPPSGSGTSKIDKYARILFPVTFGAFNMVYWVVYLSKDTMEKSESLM

Target: T1, human α4β2δ GABAA receptors (Homo sapiens, UniProt P47870+P48169)
T1 construct: expressed in transfected cells; host or cells: Xenopus laevis oocytes injected with cRNA, 5:1:5 (α4:β2:δ)
Assay: two-electrode voltage clamp of α4β2δ GABAA receptors expressed in Xenopus laevis oocytes (RAD model analysis)
Assay type: cell-based
Procedure: The human α4β2δ GABAA receptors were expressed in Xenopus laevis oocytes. Harvesting of oocytes was conducted under the Guide for the Care and Use of Laboratory Animals as adopted and promulgated by the National Institutes of Health. The animal protocol was approved by the Animal Studies Committee of Washington University in St. Louis (Approval No. 20170071).
The cDNAs of individual subunits in the pcDNA3 vector were linearized with Xba I (NEB Labs, Ipswich, MA). The cRNAs were generated using mMessage mMachine (Ambion, Austin, TX). The oocytes were injected with a total of 11 ng cRNA per oocyte in a 5:1:5 (α4:β2:δ) ratio. Following injection, the oocytes were incubated in bath solution (96 mM NaCl, 2 mM KCl, 1.8 mM CaCl2, 1 mM MgCl2, and 5 mM HEPES; pH 7.4) plus supplements (2.5 mM Na pyruvate, 100 U/ml penicillin, 100 μg/ml streptomycin, and 50 μg/ml gentamycin) at 15 °C for 3–4 days prior to conducting electrophysiological recordings.
The recordings were conducted at room temperature using standard two-electrode voltage clamp. […]
In such cases, the number of cell provided is given as a range of cell numbers for each concentration point. […] The level of constitutive activity was determined by exposing the cells to 100–300 μM picrotoxin.
The current traces were analyzed using Clampfit (Molecular Devices) to determine the amplitudes of peak and steady-state responses. […]

## pregnenolone sulfate [PS]
Inhibition of steady-state current elicited by 0.3 μM GABA
  IC50: 1.4 ± 0.3 µM
read-out: KPS, equilibrium dissociation constant of the resting and active receptors, fit to Eq. (3), 0.3 μM GABA, 1 site
  Kd: 2.6 ± 0.6 µM
